The series is described as follows: activity coefficient (dimensionless); of the first substance listed, at infinite dilution; xn = mol fraction of the nth substance listed. The settings on record: 101 kPa, Liquid, Chromatography, x1 = 0.

± gives the expanded uncertainty stated by the source.

Results on one compound are retold here after the NIST ThermoML archive (doi:10.1021/je100410k).

Turning to `CCCCOCCCC` [dibutyl ether] + CCCCn1cc[n+](C)c1.Cc1ccc(S(=O)(=O)[O-])cc1, the activity coefficient (338.2 K) came to 29.2 ± 2, the activity coefficient (348.2 K) worked out at 27.7 ± 1.9, the activity coefficient (358.2 K) was 26.3 ± 1.8 and the activity coefficient (368.2 K) is 25.2 ± 1.7.
